scFv variants of Ab-14 (heavy chain) against a SARS-CoV-2 spike peptide

Target peptide (SARS-CoV-2 spike, HR2 region): PDVDLGDISGINAS

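The starting antibody came from a phage panning campaign against this peptide. Designed CDR sequences, proposed from the first random library and measured here. Their group label is 14H_GP_Gen (GP: Gaussian process model; Gen: genetic algorithm; a sequence that several methods proposed may carry one label only). The scFvs were displayed on barcoded MATa yeast, the peptide on MATalpha yeast. The frequency of each diploid, read from paired DNA barcodes, reflects how well the two displayed proteins bind. A regression on co-assayed BCL2-family reference pairs converts the normalised counts of each replicate to an apparent Kd. Mating was done six times.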

Each scFv is VH, the linker GGGGSGGGGSGGGGS, VL, as in the parent Ab-14, and differs from it in the CDRs of the heavy chain only.
VH: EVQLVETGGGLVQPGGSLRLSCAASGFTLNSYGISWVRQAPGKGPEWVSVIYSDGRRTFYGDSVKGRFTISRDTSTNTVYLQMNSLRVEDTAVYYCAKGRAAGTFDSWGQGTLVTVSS
VL: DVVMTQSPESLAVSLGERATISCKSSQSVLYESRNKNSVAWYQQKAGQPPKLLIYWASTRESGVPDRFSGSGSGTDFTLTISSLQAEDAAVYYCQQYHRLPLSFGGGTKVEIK

Variants are written as CDR1, CDR2 and CDR3 of the heavy chain (limits as in the source). Parent: GFTLNSYGIS, VIYSDGRRTFYGDSVK, GRAAGTFDS. Numbers give log10(Kd / nM), so 0 is 1 nM and 3 is 1 µM. Smaller is tighter. Averages over replicates are reported, and they cover detected replicates only. A pair that was not seen in that replicate is written "n.d."; this usually means weak binding, but a binder can also be missed. Of ten entries with the parent sequence, four were seen in most replicates (averages 0.34 to 2.37), three in one and three in none, so single entries are noisy. Three control strains display no target. For all heavy chain designs, 1% of the pairings with them gave a signal, with a median of 2.08 and one signal in twenty below 0.84, so weak values seen in few replicates may be background. Also given: how often the same scFv was detected with the empty control strains, with their mean in brackets. Values of this round are not directly comparable with the first-round values of the same sequences. The authors' rule: three or more of the six replicates give a measured affinity, fewer mean a poor binder.

CDR-H1	CDR-H2	CDR-H3	log10 Kd, replicates	mean log10 Kd (nM)	signal with controls
GFDLNSYGIS	VIYSDGKRTFYGDNVK	GRTAGTFDS	1.35 / 0.48 / 0.17 / 0.38 / 0.47 / 0.21	0.51	0/18
PFDLNSYGIS	VIYSDGRRTFYVDSVK	GNAAGTFDS	0.20 / -0.33 / -0.07 / -0.32 / -0.39 / -0.17	-0.18	1/18 (2.67)
GFQLNEYGIS	VIYSDGRRTFYGDSVK	GQTAGTFDS	0.52 / -0.18 / 0.19 / 0.37 / 0.13 / 0.08	0.18	0/18
GFFLNEYGIS	VIYSDGRRTFYGDSVK	GRQAGTFDS	1.81 / 1.62 / 1.35 / 2.52 / 0.72 / 2.15	1.69	0/18
GFDLNSYGIS	VIYSDGRRTFYGDNVK	GQAAGTFDS	0.39 / 0.06 / 1.55 / 0.35 / 0.47 / 0.41	0.54	0/18
GFDLNSYGIS	VIYSDGKRTFYGDHVK	GRTAGTFDS	0.95 / 0.39 / 0.66 / 0.25 / 0.51 / 0.23	0.50	0/18
GFELNSYGIS	VIYSDGRRTFYADDVK	GNAAGTFDS	n.d. / n.d. / n.d. / 0.52 / 0.10 / 1.70	0.77	0/18
GFELNEYGIS	VIYSDGRRTFYCDSVK	GRTAGTFDS	1.35 / 2.01 / 1.26 / 1.66 / 1.37 / 1.58	1.54	1/18 (2.69)
GFELNSYGIS	VIYADGRRTFYGDSVK	GRAAGTFDI	0.35 / 0.28 / -0.12 / 0.06 / 0.14 / 0.08	0.13	0/18
GFTLNSYGIS	VIYSDGKRTFYGDSVK	GKAAGTFDT	2.17 / 2.03 / 1.66 / 1.42 / 1.40 / 1.88	1.76	0/18
GFELNSYGIS	VIYSDGRRTFYTDSVK	GTAAGTFDS	n.d. / n.d. / n.d. / n.d. / n.d. / n.d.	n.d.	0/18
GFNLNSYGIS	VIYSDGRRTFYGDSVK	GQAAGTFDQ	1.06 / 0.73 / 1.53 / 0.95 / n.d. / 1.94	1.24	0/18
GFNLNSYGIS	VIYSDGRRTFYGDPVK	GRTAGTFDS	n.d. / 1.52 / n.d. / n.d. / n.d. / n.d.	1.52	1/18 (1.43)
GFGLNSYGIS	VIYSDGRRTFYGDQVK	GQTAGTFDS	0.73 / 0.80 / 0.64 / 0.57 / 0.66 / 0.66	0.68	0/18
GFDLNSYGIS	VIYSDGRRTFYGDSVK	GQEAGTFDS	0.42 / 0.11 / 0.51 / 0.15 / 0.41 / 0.09	0.28	1/18 (2.13)
KFNLNSYGIS	VIYSDGRRTFYGDSVK	GREAGTFDS	n.d. / 1.44 / 2.38 / n.d. / 2.25 / 2.06	2.03	1/18 (2.21)
GFNLNSYGIS	VIYSDGRRTFYKDSVK	GREAGTFDS	n.d. / 0.37 / 1.27 / 0.44 / 1.85 / 0.87	0.96	0/18
GFELNSYGIS	VIYSDGKRTFYIDSVK	GKAAGTFDS	n.d. / 0.03 / n.d. / n.d. / n.d. / n.d.	0.03	0/18
GFDLNSYGIS	VIYSDGKRTFYGDDVK	GRTAGTFDS	0.12 / -0.18 / -0.30 / -0.34 / -0.43 / 0.12	-0.17	1/18 (2.02)
GFNLNSYGIS	VIYSDGRRTFYGDEVK	GRQAGTFDS	n.d. / n.d. / 2.00 / n.d. / n.d. / n.d.	2.00	0/18
KFDLNSYGIS	VIYSDGRRTFYDDSVK	GKAAGTFDS	n.d. / 1.50 / 1.60 / 1.74 / 1.50 / 1.51	1.57	0/18
GFELNSYGIS	VIYSDGRRTFYQDSVK	GNAAGTFDS	1.11 / 0.14 / 0.08 / 0.02 / 0.35 / 0.05	0.29	0/18
SFDLNSYGIS	VIYSDGRRTFYADSVK	GKAAGTFDS	0.20 / 1.31 / 0.14 / 0.56 / 1.10 / 0.33	0.61	0/18
GFDLNSYGIS	VIYSDGRRTFYIDMVK	GNAAGTFDS	n.d. / n.d. / n.d. / n.d. / 0.50 / 0.45	0.48	0/18
GFELNSYGIS	VIYSDGKRTFYGDSVK	GRTAGTFDT	1.03 / 0.90 / 0.91 / n.d. / n.d. / n.d.	0.95	0/18
GFELNSYGIS	VIYSDGRRTFYGDSVK	GVIAGTFDS	-0.86 / 0.03 / 0.11 / -0.01 / -0.26 / 0.31	-0.11	0/18
GFDLNEYGIS	VIYSDGRRTFYGDPVK	GRTAGTFDS	0.19 / 0.30 / -0.04 / -0.13 / 0.02 / 0.13	0.08	2/18 (2.56)
GFDLNSYGIS	VIYSDGRRTFYGDSVK	GQTAGTFDV	0.39 / 0.38 / 0.03 / -0.09 / 0.00 / -0.08	0.11	1/18 (1.90)
PFDLNSYGIS	VIYSDGRRTFYADSVK	GNAAGTFDS	n.d. / 2.45 / 2.34 / n.d. / n.d. / 2.72	2.50	0/18
GFDLNSYGIS	VIYSDGRRTAYQDSVK	GRAAGTFDS	0.33 / 0.21 / 0.13 / -0.14 / 0.25 / 0.06	0.14	0/18
GFSLNEYGIS	VIYSDGRRTFYVDSVK	GRQAGTFDS	n.d. / n.d. / n.d. / n.d. / n.d. / n.d.	n.d.	0/18
KFELNSYGIS	VIYSDGRRTFYADSVK	GRTAGTFDS	2.05 / 0.95 / 0.90 / 1.18 / 1.71 / 1.11	1.32	0/18
GFSLNSYGIS	VIYSDGRRTFYADEVK	GRQAGTFDS	0.17 / 0.36 / 0.09 / 0.29 / -0.23 / 0.23	0.15	2/18 (2.93)
GFSLNSYGIS	VIYSDGRRTFYGDNVK	GKTAGTFDS	0.36 / 0.39 / 0.22 / 0.09 / 0.48 / 0.19	0.29	0/18
GFSLNDYGIS	VIYSDGRRTFYIDSVK	GRQAGTFDS	-0.17 / -0.01 / -0.43 / -0.22 / -0.16 / 0.19	-0.13	0/18
GFDLNSYGIS	VIYSDGRRTFYGDSVK	GKEAGTFDT	0.07 / -0.09 / -0.30 / -0.34 / -0.46 / -0.03	-0.19	0/18
GFDLNSYGIS	VIYSDGRRTFYGDSVK	GRTAGTFDG	-0.76 / 0.12 / -0.37 / n.d. / 0.16 / n.d.	-0.21	0/18
GFDLNSYGIS	VIYSDGRRTFYGDDVK	GRIAGTFDS	0.38 / 0.55 / 0.70 / -0.01 / 0.42 / 0.81	0.48	2/18 (2.02)
GFNLNEYGIS	VIYSDGRRTFYGDSVK	GRHAGTFDS	1.73 / 0.14 / 0.70 / 0.67 / 0.68 / 0.68	0.76	0/18
KFDLNSYGIS	VIYSDGKRTFYGDSVK	GRQAGTFDS	n.d. / n.d. / 1.32 / n.d. / n.d. / 1.51	1.41	0/18
GFKLNSYGIS	VIYSDGRRTFYGDSVK	GKQAGTFDS	n.d. / n.d. / 2.05 / n.d. / 1.97 / 2.08	2.03	0/18
GFDLNSYGIS	VIYSDGRRTFYGDEVK	GRTAGTFDS	0.03 / -0.36 / -0.40 / -0.16 / -0.42 / -0.18	-0.25	1/18 (1.96)
GFGLNEYGIS	VIYSDGRRTFYGDSVK	GTAAGTFDS	-0.08 / 0.32 / -0.57 / -0.18 / 0.50 / -0.26	-0.04	1/18 (1.09)
GFELNSYGIS	VIYSDGRRTFYIDSVK	GNAAGTFDK	1.07 / 1.04 / 1.23 / 0.59 / 2.08 / 0.77	1.13	0/18
GFELNSYGIS	VIYSDGRRTFYGDQVK	GKIAGTFDS	n.d. / 2.62 / 1.06 / 0.82 / 1.21 / n.d.	1.43	0/18
GFNLNSYGIS	VIYSDGRRTFYGDSVK	GMQAGTFDS	n.d. / n.d. / n.d. / n.d. / 1.04 / n.d.	1.04	0/18
GFELNSYGIS	VIYSDGRRTFYIDSVK	GKQAGTFDS	0.62 / 0.70 / 0.67 / 0.52 / 1.07 / 1.08	0.78	1/18 (2.33)

For reference, 3 entries of the list once more:

CDR-H1	CDR-H2	CDR-H3	log10 Kd, replicates	mean log10 Kd (nM)	signal with controls
GFNLNEYGIS	VIYSDGRRTFYGDSVK	GRHAGTFDS	1.73 / 0.14 / 0.70 / 0.67 / 0.68 / 0.68	0.76	0/18
GFELNSYGIS	VIYSDGRRTFYIDSVK	GNAAGTFDK	1.07 / 1.04 / 1.23 / 0.59 / 2.08 / 0.77	1.13	0/18
KFNLNSYGIS	VIYSDGRRTFYGDSVK	GREAGTFDS	n.d. / 1.44 / 2.38 / n.d. / 2.25 / 2.06	2.03	1/18 (2.21)

From the AlphaSeq antibody data of Li et al. 2023 (doi:10.1038/s41467-023-39022-2), copy in the FLAb collection.